The values that follow come from US7019019B2, “Matriptase inhibitors and methods of use” (Dendreon Corporation, priority 2002, dated 2006).

By UniProt entry, the sequences of proteins in these tests, tags left out. Residues count along the entry.
UniProt Q9BYE2, 326-586 limits assumed: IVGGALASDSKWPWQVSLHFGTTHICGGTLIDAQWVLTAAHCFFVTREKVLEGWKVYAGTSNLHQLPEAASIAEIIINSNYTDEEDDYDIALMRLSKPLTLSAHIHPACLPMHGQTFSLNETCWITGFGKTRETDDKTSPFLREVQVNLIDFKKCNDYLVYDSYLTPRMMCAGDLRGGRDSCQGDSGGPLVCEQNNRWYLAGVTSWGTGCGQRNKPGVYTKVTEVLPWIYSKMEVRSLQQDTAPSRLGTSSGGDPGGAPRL
UniProt P00742, 235-488 limits assumed: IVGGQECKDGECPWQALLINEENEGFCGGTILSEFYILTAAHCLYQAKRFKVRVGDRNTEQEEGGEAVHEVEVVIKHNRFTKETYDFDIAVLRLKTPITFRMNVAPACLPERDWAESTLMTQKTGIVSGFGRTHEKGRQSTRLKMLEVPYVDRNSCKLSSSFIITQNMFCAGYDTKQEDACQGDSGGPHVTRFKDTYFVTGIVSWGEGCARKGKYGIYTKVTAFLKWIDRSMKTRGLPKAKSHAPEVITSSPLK
UniProt P00742, 41-179 partner limits assumed: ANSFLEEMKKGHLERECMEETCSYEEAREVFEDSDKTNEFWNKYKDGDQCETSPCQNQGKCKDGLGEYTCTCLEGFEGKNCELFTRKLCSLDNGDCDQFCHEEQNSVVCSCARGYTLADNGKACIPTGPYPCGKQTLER
UniProt P00747, 581-810 limits assumed: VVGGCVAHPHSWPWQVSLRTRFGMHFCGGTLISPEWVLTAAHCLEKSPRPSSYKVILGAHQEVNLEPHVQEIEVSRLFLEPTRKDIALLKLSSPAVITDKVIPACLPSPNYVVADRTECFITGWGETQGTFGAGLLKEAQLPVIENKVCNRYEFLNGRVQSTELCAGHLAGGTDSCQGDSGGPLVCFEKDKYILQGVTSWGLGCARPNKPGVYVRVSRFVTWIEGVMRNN
UniProt P00747, 97-580 partner limits assumed: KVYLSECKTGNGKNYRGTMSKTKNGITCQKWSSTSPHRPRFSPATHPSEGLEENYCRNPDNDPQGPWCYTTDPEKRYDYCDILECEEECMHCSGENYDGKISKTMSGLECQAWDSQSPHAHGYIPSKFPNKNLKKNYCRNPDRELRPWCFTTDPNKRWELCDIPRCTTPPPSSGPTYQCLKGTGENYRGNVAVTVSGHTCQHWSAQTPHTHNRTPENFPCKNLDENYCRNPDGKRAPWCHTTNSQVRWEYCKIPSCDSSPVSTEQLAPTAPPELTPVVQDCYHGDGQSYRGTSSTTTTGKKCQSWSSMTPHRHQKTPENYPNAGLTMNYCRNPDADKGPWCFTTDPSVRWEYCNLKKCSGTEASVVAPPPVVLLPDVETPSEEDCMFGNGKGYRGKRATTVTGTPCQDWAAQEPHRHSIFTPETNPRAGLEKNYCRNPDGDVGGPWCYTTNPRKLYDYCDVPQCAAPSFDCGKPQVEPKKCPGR
UniProt Q9UL52, 192-423 limits assumed: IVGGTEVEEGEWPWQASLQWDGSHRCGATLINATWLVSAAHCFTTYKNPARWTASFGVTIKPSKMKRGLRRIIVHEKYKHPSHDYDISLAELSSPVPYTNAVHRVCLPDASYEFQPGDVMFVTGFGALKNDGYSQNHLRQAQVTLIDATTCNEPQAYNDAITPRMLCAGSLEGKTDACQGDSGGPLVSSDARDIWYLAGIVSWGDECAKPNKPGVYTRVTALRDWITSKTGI
UniProt Q9Y5Y6, whole entry C731S: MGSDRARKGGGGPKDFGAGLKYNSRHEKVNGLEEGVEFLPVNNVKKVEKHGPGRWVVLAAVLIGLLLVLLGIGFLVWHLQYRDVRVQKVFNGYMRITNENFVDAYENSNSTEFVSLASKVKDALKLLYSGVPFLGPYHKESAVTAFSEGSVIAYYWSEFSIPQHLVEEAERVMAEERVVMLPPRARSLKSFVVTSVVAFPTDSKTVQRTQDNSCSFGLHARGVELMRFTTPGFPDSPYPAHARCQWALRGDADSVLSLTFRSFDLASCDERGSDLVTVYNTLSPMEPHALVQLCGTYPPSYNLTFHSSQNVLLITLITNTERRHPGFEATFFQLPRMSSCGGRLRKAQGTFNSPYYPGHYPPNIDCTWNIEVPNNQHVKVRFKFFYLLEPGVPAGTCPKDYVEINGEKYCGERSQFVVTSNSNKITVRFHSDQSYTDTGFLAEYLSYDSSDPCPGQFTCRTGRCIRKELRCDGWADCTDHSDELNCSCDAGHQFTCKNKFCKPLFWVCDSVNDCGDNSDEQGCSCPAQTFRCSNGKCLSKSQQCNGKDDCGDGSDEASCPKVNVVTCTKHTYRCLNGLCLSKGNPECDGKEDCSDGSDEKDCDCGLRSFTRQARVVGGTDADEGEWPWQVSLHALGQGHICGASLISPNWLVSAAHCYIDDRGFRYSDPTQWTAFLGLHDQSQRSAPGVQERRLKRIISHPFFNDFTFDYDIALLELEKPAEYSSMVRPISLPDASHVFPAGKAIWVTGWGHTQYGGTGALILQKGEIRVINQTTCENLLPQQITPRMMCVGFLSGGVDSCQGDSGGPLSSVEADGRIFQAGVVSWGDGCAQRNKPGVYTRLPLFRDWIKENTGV

The target of one assay is α-thrombin (Homo sapiens, UniProt P00734). As to the kind of experiment: Thrombin (fIIa) chromogenic assay (Pefachrome t-PA). The settings on record: read-out: Ki Thrombin. The method, then: (§1) The ability of compounds to act as a selective inhibitor of matriptase activity was assessed by determining the concentration of test-compound which inhibited the activity of matriptase by 50%, (IC50) as described in Example A, and comparing IC50 value for matriptase to that determined for all or some of the following serine proteases: thrombin, recombinant tissue plasminogen activator (rt-PA), plasmin, activated protein C, chymotrypsin, factor Xa and trypsin.
(§2) The buffer used for all assays was HBSA (10 mM HEPES, pH 7.5, 150 mM sodium chloride, 0.1% bovine serum albumin).
(§3) The assay for IC50 determinations was conducted by combining in appropriate wells of a Corning microtiter plate, 50 microliters of HBSA, 50 microliters of the test compound at a specified concentration (covering a broad concentration range) diluted in HBSA (or HBSA alone for V0 (uninhibited velocity) measurement), and 50 microliters of the enzyme diluted in HBSA. […] The initial velocity of chromogenic substrate hydrolysis was measured by the change in absorbance at 405 nm using a Thermo Max® Kinetic Microplate Reader over a 5 minute period in which less than 5% of the added substrate was utilized. […]
Enzyme activity was determined using the chromogenic substrate, Pefachrome t-PA (CH3SO2-D-hexahydrotyrosine-glycyl-L-Arginine-p-nitroaniline, obtained from Pentapharm Ltd.). […]

Assay [1] addresses (Homo sapiens, UniProt Q9BYE2). The assay can be described thus: In vitro enzyme assay for specificity: Endothelin 2. It is filed as biochemical. Particulars: read-out: Ki Endothelin 2.
The next assay concerns the target Factor Xa (Homo sapiens, UniProt P00742). As to the kind of experiment: Factor Xa chromogenic assay (S-2765). Particulars: read-out: Ki FXa. On the procedure: as §1, §2, §3
Factor Xa catalytic activity was determined using the chromogenic substrate S-2765 (N-benzyloxycarbonyl-D-arginine-L-glycine-L-arginine-p-nitro aniline), obtained from DiaPharma Group (Franklin, Ohio). […]

The next assay has as its target plasmin (Homo sapiens, UniProt P00747). The assay can be described thus: Plasmin chromogenic assay (S-2366). The settings on record: read-out: Ki Plasmin. The method, then: as §1, §2, §3
Plasmin catalytic activity was determined using the chromogenic substrate, S-2366 [L-pyroglutamyl-L-prolyl-L-arginine-p-nitroaniline hydrochloride], which was obtained from DiaPharma group. […]

The target in assay [2] is (Homo sapiens, UniProt Q9UL52). As to the kind of experiment: In vitro enzyme assay for specificity: Endothelin 1. It is filed as biochemical. Particulars: read-out: Ki Endothelin 1.
Another assay addresses Matriptase (Homo sapiens, UniProt Q9Y5Y6). As to the kind of experiment: Amidolytic assay for inhibition of serine protease activity of matriptase or MTSP1. Particulars: read-out: Ki Matriptase.

Some results are limits rather than exact numbers.

By Ki is commonly meant the dissociation constant of the complex between target and ligand, obtained from inhibition or displacement. `N=C(N)c1cccc(CC(N)(C=CC(=O)O)C(=O)NCC(=O)NCc2ccc(C(=N)N)s2)c1` (stereo not drawn): the inhibition constant (Ki) is 500 to 2500 nM on α-thrombin; above 2500 nM in assay [1]; 500 to 2500 nM on Factor Xa; 500 to 2500 nM at plasmin; above 2500 nM in assay [2]; 100 to 250 nM at Matriptase.
